Experimental data reported in ChEMBL document CHEMBL1132382 (J Med Chem, 1999).

Sequences of proteins named here, by UniProt entry; tags and fusion partners are left off. A change or cut given only in a name is not applied to a line headed by its entry.
UniProt P00915: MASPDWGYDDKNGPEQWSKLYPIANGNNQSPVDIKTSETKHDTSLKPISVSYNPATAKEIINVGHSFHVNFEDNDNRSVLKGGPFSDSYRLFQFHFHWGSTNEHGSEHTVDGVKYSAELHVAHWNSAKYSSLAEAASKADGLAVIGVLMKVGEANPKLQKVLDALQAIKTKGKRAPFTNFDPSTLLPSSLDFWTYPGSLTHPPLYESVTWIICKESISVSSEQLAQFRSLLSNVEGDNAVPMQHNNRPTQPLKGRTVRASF

Molecular target: Carbonic anhydrase 1 (Homo sapiens, UniProt P00915)

NCC(=O)Nc1ccc(S(N)(=O)=O)cc1
Ki: 15 µM
